Measurements as given in PubChem BioAssay AID1417 (Emory University Molecular Libraries Screening Center, 2008).
pIC50: −log10 of the molar value.

The chains behind the UniProt entries cited, without tags or fusion partners.
UniProt Q07820, whole entry, looked up: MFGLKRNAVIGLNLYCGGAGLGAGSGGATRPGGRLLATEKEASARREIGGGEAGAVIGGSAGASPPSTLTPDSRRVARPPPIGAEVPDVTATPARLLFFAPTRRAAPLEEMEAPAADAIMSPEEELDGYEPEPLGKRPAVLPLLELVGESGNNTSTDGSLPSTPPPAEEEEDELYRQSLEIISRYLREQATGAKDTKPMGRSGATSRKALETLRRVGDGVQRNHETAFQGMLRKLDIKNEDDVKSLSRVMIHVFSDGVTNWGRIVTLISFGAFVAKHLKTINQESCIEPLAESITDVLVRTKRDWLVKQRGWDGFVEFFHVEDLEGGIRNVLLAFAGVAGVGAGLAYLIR

Target: Induced myeloid leukemia cell differentiation protein Mcl-1 (Homo sapiens) (UniProt Q07820)
Experiment: Mcl-1/Noxa binding inhibitor potency, dose response, biochemical, TR-FRET (AID 1417)
Conditions: Mcl-1/Noxa peptide interaction, cell-free TR-FRET (terbium/rhodamine), 2 h; measured here: absolute IC50

- pIC50: < 4.27
Compound: CC1(C)N([O-])c2cc([N+](=O)[O-])ccc2[N+]1=O
